Key:
[1] = Neuropharmacological Profile (NPP): general CNS observational screen (depression, righting reflex, ataxia)
Description: Representative compounds according to the present invention were tested for central nervous system activity by Pharmakon Laboratories of Scranton, Pennsylvania. The battery of general observational procedures used is referred to herein as a Neuropharmacological Profile (NPP). Additionally, representative compounds were tested in the Anticonvulsant Screening Project of the National Institutes of Neurological and Communicative Disorders and Stroke (NINCDS) at the University of Utah under the direction of Dr. Ewart A. Swinyard.
The procedures for the determination of a neuropharmacological profile involved white male mice of the Carworth Farm Strain CF-1 weighing 18 to 22 grams. […] Intraperitoneal injections were administered in logarithmic progression and sequentially. The dose levels employed routinely were 10, 30, 100 and 300 mg/kg, using four male mice at each dose level. Since this test was conducted in a sequential manner, the first does administered was at 300 mg/kg. […] Approximately thirty-eight signs and symptoms of pharmacological activity can be identified.
The animals were observed continously for one hour and, if no signs of pharmacological or toxicological activity were present at the end of the first hour, they were intermittently checked for activity every fifteen minutes thereafter for two consecutive hours. […] The animals were observed and signs and symptoms of pharmacological activity were recorded continuously until no further symptoms developed and until the symptoms that appeared were no longer present. […] Routinely, the number of animals alive at the end of the forty-eight hour observation period was recorded and the LD50 estimated. […]
Since this is a general CNS screening procedure, only peak effects were recorded. Certain measures of behavior and neurological deficit were scored in terms of intensity of effect, while most others were determined on an all or none basis. […] The compounds were also evaluated for anticonvulsant activity by using the maximal electroshock seizure (MES) test. […]
At the termination of the test, the results were recorded and tabulated. […]

[2] = NINCDS Maximal Electroshock Seizure Test (MES); type: in vivo, mice; conditions: secondary evaluation
Description: (§1) 1. Neurological Activity Tests. […] Compounds were evaluated for anticonvulsant activity in two seizure models, the maximal electroshock seizure (MES) test and the subcutaneous pentylenetetrazol (Metrazol) seizure threshold (scMet) test.
The Maximal Electroshock Seizure Test was performed according to the method described by Swinyard and coworkers,* wherein a drop of 0.9% saline is instilled in each eye prior to application of corneal electrodes. Seizures are elicited with a 50 Hz alternating current of 50 mA (5 to 7 times that necessary to elicit minimal electroshock seizures) delivered for 0.2 sec via corneal electrodes. This stimulus will produce a maximal seizure in all normal mice. The maximal seizure typically consists of a short period of initial tonic flexion and a prolonged period of hind limb tonic extension, followed by terminal clonus. The seizure lasts about 22 seconds. Abolition of the hind limb tonic extensor component of the seizure is defined as protection and indicates anticonvulsant activity in the test compound.
(§2) The ability of a compound to prevent maximal electroshock seizures is believed to correlate with its ability to prevent the spread of seizure discharge through neural tissue. […]
(§3) In the Secondary Evaluation, median effective doses (ED50) are determined in the MES, scMet and Rotorod assays using the procedures defined in Pharmacology, 95, 99-113 (1949). […]

[3] = NINCDS Subcutaneous Pentylenetetrazol (Metrazol) Seizure Threshold Test (scMet); type: in vivo, mice; conditions: secondary evaluation
Description: as §1
Subcutaneous Pentylenetetrazol (Metrazol) Seizure Threshold Test (scMet) produces threshold (clonic) seizures. Pentylenetetrazol is administered subcutaneously as a threshold 0.5% solution (in 0.9% sodium chloride) in a loose fold of skin on the back of the neck in a dose of 85 mg/kg. […] Metrazol is given 10 minutes before the beginning of the test to allow for the delay in onset of Metrazol action. The animal is observed for 30 minutes. Failure to observe even a threshold seizure (a single episode of clonic spasms at least 5 seconds in duration) is defined as protection and indicates anticonvulsant activity in the test compound. These two methods of seizure provocation reliably elicit well-characterizied seizure phenomena.
as §2, §3

[4] = at 100 mg/kg, i.p., mice, score 0-8

With Cc1ccccc1-n1c(C)nc2ccccc2c1=O [methaqualone, 2-methyl-3-o-tolyl-4(3H)-quinazolinone, reference compound] the muscle relaxant properties ([1]; NPP summary) was “not exhibited”, the Ataxia [1, 4] was 8 and the Righting reflex [1, 4] was 8. For the same molecule, the “PI MES (Protective Index = TD50/ED50)” value [2] was 1.05 and the “PI scMet (Protective Index = TD50/ED50)” value [3] was 1.64.

Source: US4183931A, “2-Ketoalkyl-4(3H)-quinazolinones” (Research Corporation, priority 1977, dated 1980)
